# Ab-14 light chain CDR variants: yeast mating affinities

Source: Engelhart et al. 2022 (doi:10.1038/s41597-022-01779-4), MIT Lincoln Laboratory and A-Alpha Bio; data file from the FLAb repository.

Antigen: PDVDLGDISGINAS, a 14-residue peptide of the SARS-CoV-2 spike HR2 region.

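The parent was found by panning a naive human phage display library on the peptide. In library AAYL50, one, two or three CDR residues were substituted; doubles and triples were drawn at random. The scFvs were displayed on barcoded MATa yeast, the peptide on MATalpha yeast. Pairs that bind mate more often; barcode pairs of the diploids are counted by sequencing. Each replicate has its own calibration line, from reference interactions of the BCL2 family. The assay was run in three technical replicates.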

The variants keep the heavy chain, the linker and the frameworks of Ab-14 (scFv order VH, the linker GGGGSGGGGSGGGGS, VL).
VH: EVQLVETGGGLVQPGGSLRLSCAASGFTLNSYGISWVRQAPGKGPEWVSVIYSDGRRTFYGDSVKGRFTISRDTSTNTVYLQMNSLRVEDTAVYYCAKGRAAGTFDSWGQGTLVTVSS
VL: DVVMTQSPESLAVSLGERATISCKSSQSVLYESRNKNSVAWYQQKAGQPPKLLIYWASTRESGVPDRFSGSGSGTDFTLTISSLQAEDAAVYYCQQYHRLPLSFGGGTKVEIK

Each variant is given by its three light chain CDRs, as the data file delimits them; those of the parent are KSSQSVLYESRNKNSVA, WASTRES, QQYHRLPLS. All variants listed here change Q95 of the VL, counted from its first residue. Numbers give log10(Kd / nM), so 0 is 1 nM and 3 is 1 µM. Smaller is tighter. Replicates are averaged; those with no signal do not enter the mean. Where no diploid with the target was found in any replicate, the entry reads "nd": below detection, most likely a poor binder, though not proof of it. Parent in this assay: reference entry 0.65, copy in this library 1.68. Three control strains display no target. For library AAYL50, 18% of the pairings with them gave a signal, with a median of 4.19 and one signal in twenty below 2.99, so weak values seen in few replicates may be background.

Variant KSSQSVLRESRNKNSVA | WASTRES | MQYHRLQLS showed 2.87 (3 of 3 replicates). Variant KSSQSVLYESRNKNSVN | SASTRES | WQYHRLPLS showed 3.79 (1 of 3 replicates). For KSSQSVLYDSRNKNSVA | WASTREV | YQYHRLPLS, the assay gave 3.20 (1 of 3 replicates). For KSGQSVLYESRNKNSVA | WASTRES | DQYHRLPLP, the assay gave nd (0 of 3 replicates). Variant KSSQSVLYESRNKNSVA | EASTRES | TQYHRLPLS showed 3.24 (2 of 3 replicates). Variant KSSQSVLYESRNKNSVA | WASTRES | FTYHRLPLS showed 4.35 (3 of 3 replicates). With KSSFSVLYESRNKNSVA | WASTRES | LQYHHLPLS the result was 4.14 (2 of 3 replicates).

For KSSQSVLYESRNKNSVA | WASARES | DQYHRLPKS, the assay gave 4.82 (1 of 3 replicates). Variant KSSQSVLYESRNKNSVA | WASTRLS | EFYHRLPLS gave 2.10 (3 of 3 replicates). With KSSQSVLYESRNKNSVA | VASTREG | HQYHRLPLS the result was 4.56 (2 of 3 replicates). With KSSQSVLYESRNKNSCA | WASTRES | DQYHRLTLS the result was nd (0 of 3 replicates). Variant KSSQSVLYESRNKNSVA | WASTRES | RQYHRLPLY gave nd (0 of 3 replicates). With KSSQSDLYESRNKNSVA | WASERES | NQYHRLPLS the result was 1.70 (3 of 3 replicates). With KSSQSVLYESRNKNSVA | WASTRES | CQYHRLPLS the result was nd (0 of 3 replicates).

For CSSQSVLYESRNKNSVV | WASTRES | HQYHRLPLS, the assay gave nd (0 of 3 replicates). With KSSQSVLYTSRNKNSVA | WAWTRES | MQYHRLPLS the result was 4.95 (2 of 3 replicates). For KFSQSVLYESRNTNSVA | WASTRES | CQYHRLPLS, the assay gave 2.76 (3 of 3 replicates). For KHSQSVLYESRNKNHVA | WASTRES | CQYHRLPLS, the assay gave 1.48 (3 of 3 replicates). With KSSQSHLYESRNKNSVA | WASTRES | RQYHRLPLS the result was nd (0 of 3 replicates). With KSSQSVLYESRNKNSVA | PASTRES | AQYHRLPLS the result was 3.73 (3 of 3 replicates). For KSSQSVLYESRNKNSVA | WAATRES | FQYHRLPLS, the assay gave nd (0 of 3 replicates).

With KSSQSVLYESRNKNRRA | WASTRES | WQYHRLPLS the result was 5.25 (3 of 3 replicates). For KSSQSVLYESRNKNSWA | WASTRGS | WQYHRLPLS, the assay gave nd (0 of 3 replicates). With KTSQSVLYESRNKESVA | WASTRES | MQYHRLPLS the result was nd (0 of 3 replicates). Variant KSSQSVLYESRNKVSVA | WASTRES | YQYHRYPLS showed nd (0 of 3 replicates). For KSSQSVLYEGRNKNSVA | TASTRES | MQYHRLPLS, the assay gave 1.89 (3 of 3 replicates). Variant KSTQSVLYESRNKNSVA | WASTRES | NQYDRLPLS gave 1.54 (3 of 3 replicates). Variant SSSQSVLYESRNKNSVA | WAQTRES | KQYHRLPLS showed nd (0 of 3 replicates).

With KSSQSVLYESRNKNSVA | WASTRES | RQYHRHPYS the result was nd (0 of 3 replicates). With KSSQSVLYEPRNKNSVA | WASTRES | GQYHRLELS the result was 1.35 (3 of 3 replicates). With KSSQSVLYEHRNKNSVA | WARTRES | PQYHRLPLS the result was 5.15 (3 of 3 replicates). With KSSQSVLYESRNKNSVA | WASMRES | HQDHRLPLS the result was 3.40 (3 of 3 replicates). Variant VSSQSVLYESRNKNSVA | WASTRES | TQYHRLPLP showed nd (0 of 3 replicates). Variant KSSQSVLAESRNKNSVH | WASTRES | GQYHRLPLS gave 3.18 (1 of 3 replicates).

The first 5 entries again:

For KSSQSVLRESRNKNSVA | WASTRES | MQYHRLQLS, the assay gave 2.87 (3 of 3 replicates).
For KSSQSVLYESRNKNSVN | SASTRES | WQYHRLPLS, the assay gave 3.79 (1 of 3 replicates).
For KSSQSVLYDSRNKNSVA | WASTREV | YQYHRLPLS, the assay gave 3.20 (1 of 3 replicates).
For KSGQSVLYESRNKNSVA | WASTRES | DQYHRLPLP, the assay gave nd (0 of 3 replicates).
For KSSQSVLYESRNKNSVA | EASTRES | TQYHRLPLS, the assay gave 3.24 (2 of 3 replicates).